High-throughput results deposited in PubChem BioAssay by National Center for Advancing Translational Sciences (NCATS).
LMNA splice mod: LMNA splicing modulation; HeLa LMNA splicing GFP/RFP minigene ratio, 48 h; Potency, µM (doses to about 46.1 µM), for the others: at the highest dose ratio change, negative = inhibition, usual class: inhibitors; 0.01% of 200,000 active; AID 1487; active = well fitted inhibition curve with a large enough effect in the signal ratio, with a control signal flat, not every such curve was filed as active; inconclusive = small, poorly fitted or top-dose-only effect, or effect the other way, or a change in a side signal; the % refers to the signal ratio; note: potency is the fitted concentration of half-maximal effect; % is set by controls: 0 for no effect and ±100 for the full control effect
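S3 HeLa stable clones carrying a lamin A-EGFP splicing minigene plus DsRed2 were seeded at 600 cells/well in Opti-MEM with 2% FBS, pin-dosed and incubated 48 h at 37°C. Acumen cytometry (488 nm) gave the GFP/RFP total-intensity ratio.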
ALDH1A1 block: blocks purified human ALDH1A1 activity; Potency, µM (highest dose often 75.3 µM), for the others: at the top dose activity, negative = inhibition, actives largely listed as inhibitors; Purified ALDH1A1, NADH fluorescence, propionaldehyde substrate; 7.3% of 220,000 active; AID 1030; P00352; active = well fitted inhibition curve with a large enough effect, not every such curve was filed as active; inconclusive = small, poorly fitted or top-dose-only effect, or another doubt; inactive = no such curve, though single readings can be large or run the other way;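 note: potency is the fitted concentration of half-maximal effect; plate controls were no enzyme wells and a reference inhibitor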
G9a inh: inhibitors of human histone lysine methyltransferase G9a. Q96KQ7. G9a H3K9 monomethylation, AlphaScreen, 2 h. Potency, µM (top dose mostly 102 µM), for the others: at the highest dose activity, negative = inhibition, most hits filed as inhibitors. 8.8% of 350,000 active; note: potency is the fitted concentration of half-maximal effect; % is set by controls: 0 for no effect and ±100 for the full control effect; nearly all actives have a fitted effect of over 75% in size
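Using a bead-based AlphaScreen, monomethylated H3K9 product from 2 h room-temperature reactions (G9a 20 nM, peptide 500 nM, SAM 20 uM) was detected with 0.5 ug/mL rabbit anti-H3K9me1 antibody.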
KDM4E inh: JMJD2E (human) inhibition; Potency, µM (highest dose often 57.1 µM), without a hit: at the top dose activity change, negative = inhibition, usual class: inhibitors; 1.6% of 230,000 active; JMJD2E catalytic domain, FDH-coupled NADH fluorescence (FDH is formaldehyde dehydrogenase);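 note: potency is the fitted concentration of half-maximal effect; 0% = wells with enzyme and -100% = buffer wells without enzyme; nearly all actives have a fitted effect of over 50% in size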
Sfp PPTase inh: blocks B. subtilis Sfp PPTase activity; 310,000 tested, 3.5% active; AID 1490; Biochemical Sfp PPTase activity, qHTS; Potency, µM, for the others: max response, negative = inhibition, usual class: inhibitors; active = well fitted inhibition curve with a large enough effect; inconclusive = small, poorly fitted or top-dose-only effect, or another doubt; inactive = no such curve, though single readings can be large or run the other way;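 also: the enzyme is Sfp with the accession as filed and its product quenches rhodamine fluorescence; potency is read from the fitted curve at half-maximal effect; 0% = enzyme reaction without inhibitor and -100% = no enzyme wells; top concentration of the series not given in the record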
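Step 1, compound plus 15 nM Sfp-PPTase, 15 min, room temperature. Step 2, add rhodamine-CoA (5 uM) and BHQ-2-YbbR (12.5 uM). Step 3, read 525/598 nm fluorescence at 0 and 30 min.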
miR-21 reporter: raises the signal of a miR-21 reporter | AID 2288 | 340,000 tested, under 10 active | Potency, µM (series often up to 38.3 µM), without a hit: at the highest dose reporter change, positive = more light | HeLa miR-21 FLuc reporter, luciferase, 48 h; active = well fitted rising curve with a large enough effect; inconclusive = small, poorly fitted or top-dose-only effect; inactive = no such curve, though single readings can be large or run the other way;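 further: % of control where 0% means no effect; miR-21 action dims this reporter so a rising signal means less miR-21 action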
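Compounds were titrated across several concentrations (up to approximately 40 uM) and incubated 48 hours with HeLa miR-21-FLuc reporter cells (miR-21 target sequence downstream of FLuc, endogenous miR-21). Readout was firefly luciferase luminescence after lytic detection reagent.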
* marks the source's active call; other numbers are inactive results; ? = inconclusive; / = no result; [ ] = remark or other dose. An excerpt weighted towards active compounds, which were near 13% of everything screened. Unless noted, calls come from the whole dose curve; as a rule, active = well fitted curve in the direction sought with a large enough effect; inconclusive = small, poorly fitted or top-dose-only effect, or another doubt; inactive = no such curve, though single readings can be large; an effect the other way counts as inactive or inconclusive.

Letter code – A = LMNA splice mod; B = ALDH1A1 block; C = G9a inh; D = KDM4E inh; E = Sfp PPTase inh; F = miR-21 reporter
CCOc1ccccc1N1CCN(CC(O)COC2CCCc3ccccc32)CC1 (stereo not drawn)
  A: /; B: /; C: 9%; D: /; E: 12%; F: 0%
O=S(=O)(c1cccs1)N1CCN(CC(O)COC2CCCc3ccccc32)CC1 (stereo not drawn)
  A: 3%; B: ?; C: 18µM*; D: -30%; E: -16%; F: -2%
O=S(=O)(c1cccs1)N1CCN(CC(O)COc2cccc(Br)c2)CC1 (stereo not drawn)
  A: ?; B: 20µM*; C: ?; D: ?; E: -26%; F: 15%
CCOc1ccc(CNC(=O)c2ccc(-c3nc(CS(=O)(=O)c4ccccc4)c(C)o3)cc2)cc1
  A: /; B: /; C: -25%[59 µM]; D: /; E: /; F: -22%
CC(C)(C)N/N=C/c1c(O)n(-c2ccc(Cl)cn2)c(=O)c2ccccc12
  A: ?; B: -17%; C: 3.2µM*; D: ?; E: -9%; F: -5%
O=c1c2ccccc2c(C=Nc2cccc(S(=O)(=O)NCc3ccco3)c2)c(O)n1-c1ccc(Cl)cn1
  A: -11%; B: ?; C: 28µM*; D: -7%; E: -3%; F: -1%
CC1CCC(C(C)C)C(OC(=O)Cn2c(-c3ccc(F)cc3)[n+](C)c3ccccc32)C1 (stereo not drawn)
  A: ?; B: -2%; C: 25µM*; D: -9%; E: -9%; F: ?
Cc1cccc(OCc2n(CC(=O)OC3CC(C)CCC3C(C)C)c3ccccc3[n+]2C)c1 (stereo not drawn)
  A: ?; B: -15%; C: -5%; D: -9%; E: 25µM*; F: ?
COc1cc(OC)c(NC(=O)c2ccc3c(SCC(=O)O)c4c(nc3c2)CCCC4)cc1Cl
  A: ?; B: -17%; C: 40µM*; D: -5%; E: -25%; F: -14%
COc1cc(NC(=O)c2ccc3c(SCC(=O)O)c4c(nc3c2)CCCC4)cc(OC)c1OC
  A: ?; B: 10µM*; C: ?; D: ?; E: -7%; F: 1%
COc1cc(NC(=O)c2ccc3c(Cl)c4c(nc3c2)CCC4)cc(OC)c1OC
  A: /; B: /; C: 28µM*; D: /; E: /; F: -33%
COc1ccc(OC)c(NC(=O)c2ccc3c(SCC(=O)O)c4c(nc3c2)CCCC4)c1
  A: /; B: /; C: -42%[59 µM]; D: /; E: /; F: -19%
COc1cc(NC(=O)c2ccc3c(SCC(=O)O)c4c(nc3c2)CCC4)cc(OC)c1OC
  A: /; B: /; C: /; D: /; E: 10%; F: 2%
COc1cccc(CNC(=O)c2ccc(-c3nc(COc4ccccc4)c(C)o3)cc2)c1
  A: /; B: /; C: -6%[59 µM]; D: /; E: /; F: 18%
COc1cc(C2CC(=O)c3c([nH]c(C(=O)OCc4ccc(C)cc4)c3C)C2)cc(OC)c1OC (stereo not drawn)
  A: /; B: /; C: -5%[59 µM]; D: /; E: /; F: 26%

Copied from the list.
Sfp PPTase inh with COc1cc(NC(=O)c2ccc3c(SCC(=O)O)c4c(nc3c2)CCCC4)cc(OC)c1OC → -7%
Sfp PPTase inh with Cc1cccc(OCc2n(CC(=O)OC3CC(C)CCC3C(C)C)c3ccccc3[n+]2C)c1 (stereo not drawn) → 25µM*
Sfp PPTase inh with COc1cc(NC(=O)c2ccc3c(SCC(=O)O)c4c(nc3c2)CCC4)cc(OC)c1OC → 10%

The list continues.
Letter code – A = LMNA splice mod; B = ALDH1A1 block; C = G9a inh; D = KDM4E inh; E = Sfp PPTase inh; F = miR-21 reporter
Cn1nnc2sc3c(c2c1=O)CCCC3
  A: 25%; B: 13µM*; C: ?; D: -1%; E: 50µM*; F: -7%
Cc1ccccc1Cn1nnc2sc3c(c2c1=O)CCCC3
  A: /; B: /; C: 111%[59 µM]; D: /; E: /; F: -15%
Cc1ccc(NC(=O)C(C)n2nnc3sc4c(c3c2=O)CCCC4)cc1Cl (stereo not drawn)
  A: /; B: /; C: ?; D: /; E: /; F: 2%
COc1ccc(Cl)cc1NC(=O)C(C)n1nnc2sc3c(c2c1=O)CCCC3 (stereo not drawn)
  A: /; B: /; C: 14µM*; D: /; E: /; F: 4%
CC(C(=O)Nc1ccccc1C(F)(F)F)n1nnc2sc3c(c2c1=O)CCCC3 (stereo not drawn)
  A: /; B: /; C: 14µM*; D: /; E: /; F: 0%
CC(C(=O)Nc1ccccc1)n1nnc2sc3c(c2c1=O)CCCC3 (stereo not drawn)
  A: /; B: /; C: 16µM*; D: /; E: /; F: 12%
COc1ccc(Cl)cc1NC(=O)Cn1nnc2sc3c(c2c1=O)CCC(C(C)(C)C)C3 (stereo not drawn)
  A: /; B: /; C: -5%[59 µM]; D: /; E: /; F: 3%
COc1ccc(N2CCN(CCCNC(=O)c3ccc(CS(=O)(=O)c4ccc(Cl)cc4)o3)CC2)cc1
  A: /; B: /; C: 50µM*; D: /; E: -1%; F: 19%
O=C(NCCCN1CCCC1)c1ccc(CS(=O)(=O)c2ccc(Br)cc2)o1
  A: 11%; B: 0%; C: 56µM*; D: -22%; E: -10%; F: -1%
COc1ccccc1N=Nc1[nH]c2ccc(C)cc2c1O
  A: 1%; B: ?; C: 11µM*; D: 4%; E: 7%; F: -38%
CCC(C(=O)NC(C)(C)C)N(Cc1ccco1)C(=O)CNS(=O)(=O)c1ccc(OC)cc1 (stereo not drawn)
  A: /; B: /; C: -5%; D: /; E: 13%; F: 5%
